As usually defined, the Ki is a dissociation constant, usually derived from enzyme kinetics or from competition with a known ligand.

By UniProt entry, the sequences of proteins in these tests, tags left out.
UniProt P35372, whole entry: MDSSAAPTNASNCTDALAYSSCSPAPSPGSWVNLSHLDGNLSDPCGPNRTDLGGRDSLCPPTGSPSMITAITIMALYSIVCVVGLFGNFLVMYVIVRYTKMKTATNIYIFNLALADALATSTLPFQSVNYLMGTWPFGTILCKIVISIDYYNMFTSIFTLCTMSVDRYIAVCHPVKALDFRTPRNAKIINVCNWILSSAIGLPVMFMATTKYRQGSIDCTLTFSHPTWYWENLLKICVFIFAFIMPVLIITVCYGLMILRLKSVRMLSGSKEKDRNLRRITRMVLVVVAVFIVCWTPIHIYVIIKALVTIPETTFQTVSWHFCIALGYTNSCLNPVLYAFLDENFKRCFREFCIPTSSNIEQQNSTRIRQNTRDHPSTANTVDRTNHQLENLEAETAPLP

The assay concerns the target human μ-opiate receptor (Homo sapiens, UniProt P35372). Particulars: acylated amines (Table 20).

For `CN(C)C(c1cccc(F)c1)C1CCC(CNC(=O)c2cccc(C(F)(F)F)c2)CC1` (centres unmarked), the “μ-Opioid receptor, % inhibition [1 μM]” value (1 μM) worked out at 85%. Moreover, the Ki (read-out: μ-Opioid receptor, Ki) was 0.035 µM.
